# In PubChem BioAssay AID1276 (Columbia University Molecular Screening Center, 2008):
# This is a selection; strong and weak results do not stand in their true shares. Activity calls are given as the source filed them.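 How the source made its calls: active means activation above a set limit, based on mean plus 3 SD of controls (cut at about 140% in these data); inconclusive means one replicate above the limit, the other below; inactive means the rest.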
# Assay: APP 5'UTR reporter signal increase – luciferase, SH-SY5Y cells, primary screen (AID 1276)
# Details: SH-SY5Y APP 5'UTR luciferase reporter, luminescence; at 2 µM; hits give high values; zero percent = DMSO vehicle wells
row,Structure (SMILES),activation
1,COc1ccc(NC2CCN(CCc3ccccc3)CC2)c(OC)c1,inactive: -11.1%
2,COc1ccc(C(=O)NCC2(N3CCCCC3)CCCCC2)c(OC)c1OC,inactive: -5.34%
3,O=C(NCC1(N2CCOCC2)CCCCC1)c1cc2ccccc2o1,inactive: -2.48%
4,O=C(OC1CN2CCC1CC2)C1c2ccccc2Oc2ccccc21 (stereo not given),inactive: -3.19%
5,CCOC(=O)N1CCC(Nc2ccc(OC)cc2)CC1,inactive: 3%
6,CC(C)c1ccc(NC2CCN(C(=O)OC(C)(C)C)CC2)cc1,inactive: 58.2%
7,CN(C)c1cccc(C(=O)NCC2(N3CCCCC3)CCCCC2)c1,inactive: -10.6%
8,COc1ccc(CN(CCCl)CCCl)cc1Cl,inactive: 25.7%
9,CN1CCC(Nc2cccc(F)c2)CC1,inactive: 2.61%
10,N#CC1(Nc2ccccc2)CCN(CCc2ccccc2)CC1,inactive: 0.05%
11,O=C(NCC1(N2CCCCC2)CCCCC1)c1cccc([N+](=O)[O-])c1,inactive: 4.07%
12,O=C(NCC1(N2CCOCC2)CCCCC1)c1cc(=O)[nH]c2ccccc12,inactive: 13.2%
13,COc1ccc(NC2CCN(C(=O)OC(C)(C)C)CC2)cc1,inactive: 8.05%
14,CN1CCN(CCOC(=O)C(O)(c2ccccc2)c2ccccc2)CC1,inactive: -20.3%
15,N#Cc1ccc(C(=O)NCC2(N3CCCCC3)CCCCC2)cc1,inactive: -13.9%
16,c1ccc(CN2CCC(Nc3ccccc3)CC2)cc1,inactive: 4.39%
17,COc1ccc(C(=O)NCC2(N3CCOCC3)CCCCC2)cc1OC,inactive: -10.3%
18,N/C(=N\O)c1c(N)no[n+]1[O-],inactive: -5.24%
19,O=C(OC1CN2CCC1CC2)C1c2ccccc2C=Cc2ccccc21 (stereo not given),inactive: -2.35%
20,CCOc1ncccc1C(=O)NCC1(N2CCOCC2)CCCCC1,inactive: -5.33%
21,CC(C)(C)OC(=O)N1CCC(Nc2ccccc2)CC1,inactive: 9.51%
22,COc1cc(OC)cc(C(=O)NCC2(N3CCOCC3)CCCCC2)c1,inactive: -12.5%
23,CCC(CO)(C(=O)OC1CN2CCC1CC2)c1ccccc1 (stereo not given),inactive: 3.64%
24,CCN1CCC(Nc2cccc(F)c2)CC1,inactive: -14.3%
25,CN(C)c1ccc(C(=O)NCC2(N3CCCCC3)CCCCC2)cc1,inactive: -7.46%
